Results: US20210017295A1, “BISPECIFIC BINDING AGENTS AND USES THEREOF” (MEMORIAL SLOAN KETTERING CANCER CENTER, priority 2018, published 2021)

System: BSA-(Y)-DOTA-Bn
Assay: Surface plasmon resonance (Biacore T100) binding to BSA-(Y)-DOTA-Bn
Settings: bivalent analyte model
Protocol: Biacore T100 Biosensor, CMS sensor chip, and related reagents were purchased from GE Healthcare. A BSA-(Y)-DOTA-Bn conjugate was prepared as previously described. The antigen was immobilized using the Amine Coupling Kit (GE Healthcare). Purified BsAbs were analyzed, and data were fit to a bivalent analyte model using the Biacore T100 evaluation software as previously described.

- koff: 0.00022 s⁻¹
- kon: 19000 M⁻¹ s⁻¹
- Kd (read-out: overall KD): 11.6 nM
B1: huA33-C825: control BsAb; anti-GPA33 targeting BsAb made on the same platform (antibody)
heavy: EVQLLESGGGLVQPGGSLRLSCAASGFAFSTYDMSWVRQAPGKGLEWVATISSGGSYTYYLDSVKGRFTISRDSSKNTLYLQMNSLQAEDSAIYYCAPTTVVPFAYWGQGTLVTVSSASTKGPSVFPLAPSSKSTSGGTAALGCLVKDYFPEPVTVSWNSGALTSGVHTFPAVLQSSGLYSLSSVVTVPSSSLGTQTYICNVNHKPSNTKVDKRV[omitted - human IgG1 Fc with changes]
light: DIQMTQSPSSLSVSVGDRVTITCKASQNVRTVVAWYQQKPGLAPKTLIYLASNRHTGVPSRFSGSGSGTDFTFTISSLQPEDIATYFCQQHWSYPLTFGQGTKVEVKRTVAAPSVFIFPPSDEQLKSGTASVVCLLNNFYPREAKVQWKVDNALQSGNSQESVTEQDSKDSTYSLSSTLTLSKADYEKHKVYACEVTHQGLSSPVTKSFNRGECGGGGSGGGGSASHVKLQESGPGLVQPSQSLSLTCTVSGFSLTDYGVHWVRQSPGKGLEWLGVIWSGGGTAYNTALISRLNIYRDNSKNQVFLEMNSLQAEDTAMYYCARRGSYPYNYFDAWGCGTTVTVSSGGGGSGGGGSGGGGSQAVVIQESALTTPPGETVTLTCGSSTGAVTASNYANWVQEKPDHCFTGLIGGHNNRPPGVPARFSGSLIGDKAALTIAGTQTEDEAIYFCALWYSDHWVIGGGTRLTVLG
